Among the data in US12427146B2, “C-terminal SRC kinase inhibitors” (INVENTISBIO CO., LTD., priority 2018, dated 2025) are IC50 values, retold here.

Sequences of proteins named here, by UniProt entry; tags and fusion partners are left off.
UniProt P41240, whole entry: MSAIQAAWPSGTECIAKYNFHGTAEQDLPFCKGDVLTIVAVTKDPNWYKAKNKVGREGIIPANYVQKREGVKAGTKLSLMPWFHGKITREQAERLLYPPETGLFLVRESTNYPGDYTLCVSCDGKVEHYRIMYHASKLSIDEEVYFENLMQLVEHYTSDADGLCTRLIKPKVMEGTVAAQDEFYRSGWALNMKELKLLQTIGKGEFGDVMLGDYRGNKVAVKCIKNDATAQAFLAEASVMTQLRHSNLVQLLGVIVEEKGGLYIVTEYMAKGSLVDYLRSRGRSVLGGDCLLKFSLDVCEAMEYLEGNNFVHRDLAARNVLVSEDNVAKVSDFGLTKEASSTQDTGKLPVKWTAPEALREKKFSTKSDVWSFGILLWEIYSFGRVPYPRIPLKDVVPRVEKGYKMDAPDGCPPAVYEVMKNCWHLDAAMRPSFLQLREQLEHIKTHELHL
UniProt P06239, whole entry: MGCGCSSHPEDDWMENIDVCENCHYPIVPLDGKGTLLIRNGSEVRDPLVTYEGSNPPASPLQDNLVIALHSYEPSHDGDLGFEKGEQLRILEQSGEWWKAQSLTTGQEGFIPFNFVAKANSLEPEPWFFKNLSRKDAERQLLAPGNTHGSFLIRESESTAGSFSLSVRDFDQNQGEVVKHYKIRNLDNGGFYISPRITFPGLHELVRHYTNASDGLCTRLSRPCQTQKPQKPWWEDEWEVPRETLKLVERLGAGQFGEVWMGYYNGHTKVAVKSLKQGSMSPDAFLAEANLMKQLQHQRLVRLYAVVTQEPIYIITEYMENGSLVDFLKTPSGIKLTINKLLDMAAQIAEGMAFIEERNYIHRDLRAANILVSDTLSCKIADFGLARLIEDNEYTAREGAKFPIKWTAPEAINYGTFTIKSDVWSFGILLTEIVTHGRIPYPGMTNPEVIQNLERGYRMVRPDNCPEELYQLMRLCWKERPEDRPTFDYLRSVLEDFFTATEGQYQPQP

For one experiment, the target named is CSK protein (Homo sapiens (Human), UniProt P41240). As to the kind of experiment: CSK Inhibition Assay. The following applies: read-out: CSK IC50.
For a further experiment, the target named is LCK protein (Homo sapiens (Human), UniProt P06239). As to the kind of experiment: LCK Inhibition Assay. The note with it: read-out: LCK IC50. On the procedure: Test compound was dissolved in DMSO at 10 mM. 45 uL of compound was transfer into a 384-well compound source plate (LABCYTE cat #P-05525) and serially diluted at 1:3 ratio to create a 11-point dilutions. The same volume of DMSO was adopted as high control. 20 nL of these compounds DMSO dilutes were dispensed into a new 384-well assay plate by Echo 550. LCK protein (0.50 nM, Cama Biosciences, cat #08-170), florescent labeled substrate FLPeptide4 (2 μM, PerkinElmer, cat #760348) was prepared in kinase assay buffer (50 mM HEPES (pH 7.5), 10 mM MgCl2, 0.01% Brij-35, 2 mM DTT and 0.005 mg/ml BSA). 15 uL of kinase assay buffer containing LCK protein and substrate was transferred to assay plate and incubate at RT for 30 minutes. Kinase assay buffer supplemented with substrate peptides was employed as low control to monitor the background. 400 μM ATP was prepared in kinase assay buffer and 5 μL of ATP solution was added to each well to start the reaction. The assay plate was incubated at 25° C. for 90 minutes and the reaction was stopped by adding 40 μL of 0.5 M EDTA.
Phosphorylated fluorescent-tagged peptides were differentiated from non-phosphorylated peptides by separating using Caliper EZ Reader II and the detection was directly converted to conversion ratio. […]

One may read the IC50 as the concentration that gives 50% inhibition.

Some results are limits rather than exact numbers.

As for `Cc1ccc(F)c(S(=O)(=O)Nc2cccc(-c3nc(-c4cncc(F)c4)sc3-c3ccnc(NC(C)C)n3)c2F)c1F`, the IC50 on CSK protein is 15 nM; at LCK protein, more than 1000 nM.
